Results taken from ChEMBL document CHEMBL5046301, “pH-Responsive Antimicrobial Peptide with Selective Killing Activity for Bacterial Abscess Therapy” (J Med Chem, 2022).
Converted amounts (≈) assume the structure as drawn.

Key:
Salmonella typhimurium [1] = experiment: Antibacterial activity against Salmonella typhimurium ATCC 14028 assessed as inhibition of bacterial growth at pH 6.5 incubated for 24 hrs by NCCLS protocol based method; type: functional, Salmonella enterica subsp. enterica serovar Typhimurium; settings: Salmonella enterica
Salmonella typhimurium [2] = experiment: Antibacterial activity against Salmonella enterica subsp. enterica serovar Typhimurium C77-31 assessed as inhibition of bacterial growth at pH 6.5 incubated for 24 hrs by NCCLS protocol based method; type: functional
Salmonella typhimurium [3] = experiment: Antibacterial activity against Salmonella typhimurium ATCC 14028 assessed as inhibition of bacterial growth at pH 7.4 incubated for 24 hrs by NCCLS protocol based method; type: functional, Salmonella enterica subsp. enterica serovar Typhimurium; settings: Salmonella enterica
Salmonella typhimurium [4] = experiment: Antibacterial activity against Salmonella enterica subsp. enterica serovar Typhimurium C77-31 assessed as inhibition of bacterial growth at pH 7.4 incubated for 24 hrs by NCCLS protocol based method; type: functional
Staphylococcus aureus [5] = experiment: Antibacterial activity against Staphylococcus aureus ATCC 29213 assessed as inhibition of bacterial growth at pH 6.5 incubated for 24 hrs by NCCLS protocol based method; type: functional
Pseudomonas aeruginosa [6] = experiment: Antibacterial activity against Pseudomonas aeruginosa ATCC 27853 assessed as inhibition of bacterial growth at pH 7.4 incubated for 24 hrs by NCCLS protocol based method; type: functional
Staphylococcus aureus [7] = experiment: Antibacterial activity against Staphylococcus aureus ATCC 25923 assessed as inhibition of bacterial growth at pH 6.5 incubated for 24 hrs by NCCLS protocol based method; type: functional
Staphylococcus aureus [8] = experiment: Antibacterial activity against Staphylococcus aureus ATCC 29213 assessed as inhibition of bacterial growth at pH 7.4 incubated for 24 hrs by NCCLS protocol based method; type: functional
[9] = test system: Staphylococcus epidermidis; experiment: Antibacterial activity against Staphylococcus epidermidis ATCC 12228 assessed as inhibition of bacterial growth at pH 7.4 incubated for 24 hrs by NCCLS protocol based method; type: functional
Staphylococcus aureus [10] = experiment: Antibacterial activity against methicillin-resistant Staphylococcus aureus ATCC 43300 assessed as inhibition of bacterial growth at pH 7.4 incubated for 24 hrs by NCCLS protocol based method; type: functional
Escherichia coli [11] = experiment: Antibacterial activity against Escherichia coli ATCC 25922 assessed as inhibition of bacterial growth at pH 6.5 incubated for 24 hrs by NCCLS protocol based method; type: functional
Staphylococcus aureus [12] = experiment: Antibacterial activity against methicillin-resistant Staphylococcus aureus ATCC 43300 assessed as inhibition of bacterial growth at pH 6.5 incubated for 24 hrs by NCCLS protocol based method; type: functional
Pseudomonas aeruginosa [13] = experiment: Antibacterial activity against Pseudomonas aeruginosa ATCC 27853 assessed as inhibition of bacterial growth at pH 6.5 incubated for 24 hrs by NCCLS protocol based method; type: functional
[14] = test system: Staphylococcus epidermidis; experiment: Antibacterial activity against Staphylococcus epidermidis ATCC 12228 assessed as inhibition of bacterial growth at pH 6.5 incubated for 24 hrs by NCCLS protocol based method; type: functional
Staphylococcus aureus [15] = experiment: Antibacterial activity against Staphylococcus aureus ATCC 25923 assessed as inhibition of bacterial growth at pH 7.4 incubated for 24 hrs by NCCLS protocol based method; type: functional
Escherichia coli [16] = experiment: Antibacterial activity against Escherichia coli ATCC 25922 assessed as inhibition of bacterial growth at pH 7.4 incubated for 24 hrs by NCCLS protocol based method; type: functional

SMILES: CC[C@H](C)[C@H](NC(=O)CN)C(=O)NCC(=O)N[C@@H](C)C(=O)N[C@H](C(=O)N[C@@H](CC(C)C)C(=O)N[C@@H](CCCCN)C(=O)N[C@H](C(=O)N[C@@H](CC(C)C)C(=O)N[C@H](C(=O)N[C@H](C(=O)NCC(=O)N[C@@H](CC(C)C)C(=O)N1CCC[C@H]1C(=O)N[C@@H](C)C(=O)N[C@@H](CC(C)C)C(=O)N[C@H](C(=O)N[C@@H](CO)C(=O)N[C@@H](Cc1c[nH]c2ccccc12)C(=O)N[C@H](C(=O)N[C@@H](CCCCN)C(=O)N[C@@H](CCCNC(=N)N)C(=O)N[C@@H](CCCCN)C(=O)N[C@@H](CCCNC(=N)N)C(=O)N[C@@H](CCC(N)=O)C(=O)N[C@@H](CCC(N)=O)C(N)=O)[C@@H](C)CC)[C@@H](C)CC)[C@@H](C)O)[C@@H](C)O)C(C)C)C(C)C [MELITTIN]
- MIC (Salmonella typhimurium [1]): 1 µM (≈ 2.85 µg/mL)
- MIC (Salmonella typhimurium [2]): 2 µM (≈ 5.69 µg/mL)
- MIC (Salmonella typhimurium [3]): 2 µM (≈ 5.69 µg/mL)
- MIC (Salmonella typhimurium [4]): 2 µM (≈ 5.69 µg/mL)
- MIC (Staphylococcus aureus [5]): 4 µM (≈ 11.4 µg/mL)
- MIC (Pseudomonas aeruginosa [6]): 2 µM (≈ 5.69 µg/mL)
- MIC (Staphylococcus aureus [7]): 2 µM (≈ 5.69 µg/mL)
- MIC (Staphylococcus aureus [8]): 8 µM (≈ 22.8 µg/mL)
- MIC [9]: 2 µM (≈ 5.69 µg/mL)
- MIC (Staphylococcus aureus [10]): 8 µM (≈ 22.8 µg/mL)
- MIC (Escherichia coli [11]): 1 µM (≈ 2.85 µg/mL)
- MIC (Staphylococcus aureus [12]): 4 µM (≈ 11.4 µg/mL)
- MIC (Pseudomonas aeruginosa [13]): 2 µM (≈ 5.69 µg/mL)
- MIC [14]: 1 µM (≈ 2.85 µg/mL)
- MIC (Staphylococcus aureus [15]): 8 µM (≈ 22.8 µg/mL)
- MIC (Escherichia coli [16]): 2 µM (≈ 5.69 µg/mL)
